Legend:
APJ–GRK5 interaction = assay: BRET recruitment of GRK5 to APJ; type: cell-based; settings: HEK293, APJ-Rluc + GRK5-GFP2; BRET at 10 min; mean ± SEM, four independent experiments
Protocol: (§1) To detect the potencies of different peptide ligands for APJ in living cells, real-time kinetic bioluminescence resonance energy transfer (BRET) assays were carried out as follows. HEK293 cells were grown to 80–90% confluence in 24-well plates and transiently transfected with various Rluc-, EYFP-, or Venus-tagged constructs ([Chen et al., 2014]; [Liu et al., 2016]). Approximately 36 h after transfection, the long-acting luciferase substrate EnduRen (E6481, Promega, Beijing Biotech Co., Ltd.) was added to each well at a final concentration of 60 μM and cells were incubated for 2 h at 37°C in a 5% CO2 incubator. BRET experiments were carried out using a Mithras LB941 plate reader (Berthold Technologies, Bad Wildbad, Germany) with three filters: a Rluc filter (400–475 nm), a Venus filter (515–575 nm) and an EGFP filter (500–550 nm) ([Liu et al., 2016]; [Ji et al., 2017]). The BRET ratio was calculated as the ratio of the emission at 535 ± 30 nm to that at 485 ± 20 nm. The results are expressed as the mBRET (mBRET = 1,000 × BRET ratio) ([Pfleger et al., 2006a]; [Pfleger et al., 2006b]). […]
(§2) HEK293 cells were transiently co-transfected with the designated Rluc and GFP2 or Venus or EYFP-labeled constructs. […] Kinetic-response and dose-response curve of the recruitment of GRKs or β-arrestin 1 and β-arrestin 2 or AP2 to the APJ by six peptides measured by BRET. […]

Chains of the proteins cited; added tags and fusions are not shown. Lines headed by an entry give the natural chain unless they say otherwise; changes in a name come on top.
UniProt P35414: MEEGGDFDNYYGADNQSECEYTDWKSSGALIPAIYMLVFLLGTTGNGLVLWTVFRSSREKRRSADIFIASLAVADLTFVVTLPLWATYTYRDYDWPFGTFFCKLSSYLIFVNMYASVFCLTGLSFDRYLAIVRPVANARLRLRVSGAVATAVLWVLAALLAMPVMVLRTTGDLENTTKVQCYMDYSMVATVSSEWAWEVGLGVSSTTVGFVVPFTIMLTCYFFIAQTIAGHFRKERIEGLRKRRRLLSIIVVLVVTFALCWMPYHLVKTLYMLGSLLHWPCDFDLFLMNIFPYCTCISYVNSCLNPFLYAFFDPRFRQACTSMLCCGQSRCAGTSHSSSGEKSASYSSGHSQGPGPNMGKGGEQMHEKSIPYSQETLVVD

[1] = test system: APJ–β-arrestin 1 interaction; assay: BRET recruitment of β-arrestin 1 to APJ; type: cell-based; settings: HEK293, APJ-Venus + β-arrestin1-Rluc; BRET at 15 min; mean ± SEM, four independent experiments
Protocol: as §1, §2

[2] = test system: APJ–β-arrestin 2 interaction; assay: BRET recruitment of β-arrestin 2 to APJ; type: cell-based; settings: HEK293, APJ-Venus + β-arrestin2-Rluc; BRET at 15 min; mean ± SEM, four independent experiments
Protocol: as §1, §2

APJ–GRK2 interaction = assay: BRET recruitment of GRK2 to APJ; type: cell-based; settings: HEK293, APJ-Rluc + GRK2-GFP2; BRET at 10 min; mean ± SEM, four independent experiments
Protocol: as §1, §2

Apelin receptor (APJ) = Apelin receptor (APJ) (UniProt P35414); assay: radioligand binding; competition binding: HEK-293/APJ membrane preparation 20 μg/well, 0.1 nM [125I]-apelin-13, test peptides in 5-fold dilutions starting at 10 µM; 50 mM HEPES pH 7.4, 5 mM MgCl2, 1 mM CaCl2, 0.2% BSA; 30°C, 2 h; Ki calculated from IC50

Compound | LogEC50, GRK5 (APJ–GRK5 interaction) | LogEC50, β-arrestin 1 [1] | LogEC50, β-arrestin 2 [2] | LogEC50, GRK2 (APJ–GRK2 interaction) | Ki (Apelin receptor (APJ)) [nM] | pKi (Apelin receptor (APJ))
CSCC[C@H](NC(=O)[C@@H]1CSSC[C@H](NC(=O)[C@H](CC(N)=O)NC(=O)[C@H](Cc2c[nH]cn2)NC(=O)[C@H](CCCCN)NC(=O)[C@H](CCCNC(=N)N)NC(=O)[C@@H](N)CC(C)C)C(=O)N[C@@H](CC(C)C)C(=O)N[C@@H](CCC(N)=O)C(=O)N[C@@H](CCCNC(=N)N)C(=O)N[C@@H](CCCNC(=N)N)C(=O)N1)C(=O)N1CCC[C@H]1C(=O)N[C@@H](CC(C)C)C(=O)N[C@@H](Cc1c[nH]cn1)C(=O)N[C@@H](CO)C(=O)N[C@@H](CCCNC(=N)N)C(=O)N[C@H](C(=O)N1CCC[C@H]1C(=O)N[C@@H](Cc1ccccc1)C(=O)N1CCC[C@H]1C(=O)O)C(C)C [Elabela-21] | −7.233 ± 0.2301 | −7.183 ± 0.061 | −7.175 ± 0.14 | −7.473 ± 0.1371 |  | 
Apelin-17 (peptide) |  |  |  |  | 4.65 | 8.33
